According to US20090221590A1, “SALT OF CD 80 ANTAGONIST” (MEDIGENE LIMITED, priority 2006, published 2009):

Assay: Solubility Assay (saturation, shaker 24 hours, supernatant analysed by HPLC)
Conditions: for Solubility (mg/ml) in ethanol: solvent ethanol; for Solubility (mg/ml) in ethanol / Solubility (mg/ml) in water: 25 deg C./60% relative humidity, 24 hours; for Solubility (mg/ml) in water: solvent water

Substance	Solubility (mg/ml) in ethanol [mg/mL]	Solubility (mg/ml) in water [mg/mL]	aqueous solubility (in words) (water, qualitative statement)
2-[4-(2,2-Difluoro-ethylcarbamoyl)-phenyl]-6-fluoro-2H-pyrazolo[4,3-c]cinnolin-3-olate (2-hydroxy-ethyl)-trimethyl-ammonium [Choline]	>21	>51	good aqueous solubility
Lysine	<5	<5	–
